In publication PMC10222378 (Pharmaceuticals, 2023):

Tested on: human lymphocytes
Assay: CFSE lymphocyte proliferation assay after PHA activation
Format: cell-based
Experimental: In this method, following the loading of cells with CFSE dye, each round of cell division is apparent by the reduced dye content and consequent lower fluorescence intensity of the daughter cells. […] Peripheral blood mononuclear cells (PBMCs) were isolated from the heparinized blood of healthy donors (n = 3) using the Ficoll–Hypaque separation method. […] The cells were grown in a humidified chamber at 37 °C and 5% CO2 for 6 days. As a negative control, unstimulated CFSE-labeled PBMCs were cultured in the same condition. […] After 6 days of proliferation, the CFSE-labeled cells were collected and analyzed by flow cytometry in an ACEA NovoCyte 2000R cytometer (Agilent, Santa Clara, CA, USA).

**Q.** How did the “inhibitory effect on lymphocyte proliferation” value turn out when N=C(N)Nc1nc2ccc(Cl)cc2[nH]1 [ClGBI, 5-chloro-2-guanidinobenzimidazole] was run?
**A.** Its value is “much weaker; also recorded: completely absent”.

“Also recorded” adds a separate entry of the source.
